By UniProt entry, the sequences of proteins in these tests, tags left out. Where a name states a change or a piece, a line headed by the entry shows the natural chain unless it says otherwise.
UniProt A7T1N0: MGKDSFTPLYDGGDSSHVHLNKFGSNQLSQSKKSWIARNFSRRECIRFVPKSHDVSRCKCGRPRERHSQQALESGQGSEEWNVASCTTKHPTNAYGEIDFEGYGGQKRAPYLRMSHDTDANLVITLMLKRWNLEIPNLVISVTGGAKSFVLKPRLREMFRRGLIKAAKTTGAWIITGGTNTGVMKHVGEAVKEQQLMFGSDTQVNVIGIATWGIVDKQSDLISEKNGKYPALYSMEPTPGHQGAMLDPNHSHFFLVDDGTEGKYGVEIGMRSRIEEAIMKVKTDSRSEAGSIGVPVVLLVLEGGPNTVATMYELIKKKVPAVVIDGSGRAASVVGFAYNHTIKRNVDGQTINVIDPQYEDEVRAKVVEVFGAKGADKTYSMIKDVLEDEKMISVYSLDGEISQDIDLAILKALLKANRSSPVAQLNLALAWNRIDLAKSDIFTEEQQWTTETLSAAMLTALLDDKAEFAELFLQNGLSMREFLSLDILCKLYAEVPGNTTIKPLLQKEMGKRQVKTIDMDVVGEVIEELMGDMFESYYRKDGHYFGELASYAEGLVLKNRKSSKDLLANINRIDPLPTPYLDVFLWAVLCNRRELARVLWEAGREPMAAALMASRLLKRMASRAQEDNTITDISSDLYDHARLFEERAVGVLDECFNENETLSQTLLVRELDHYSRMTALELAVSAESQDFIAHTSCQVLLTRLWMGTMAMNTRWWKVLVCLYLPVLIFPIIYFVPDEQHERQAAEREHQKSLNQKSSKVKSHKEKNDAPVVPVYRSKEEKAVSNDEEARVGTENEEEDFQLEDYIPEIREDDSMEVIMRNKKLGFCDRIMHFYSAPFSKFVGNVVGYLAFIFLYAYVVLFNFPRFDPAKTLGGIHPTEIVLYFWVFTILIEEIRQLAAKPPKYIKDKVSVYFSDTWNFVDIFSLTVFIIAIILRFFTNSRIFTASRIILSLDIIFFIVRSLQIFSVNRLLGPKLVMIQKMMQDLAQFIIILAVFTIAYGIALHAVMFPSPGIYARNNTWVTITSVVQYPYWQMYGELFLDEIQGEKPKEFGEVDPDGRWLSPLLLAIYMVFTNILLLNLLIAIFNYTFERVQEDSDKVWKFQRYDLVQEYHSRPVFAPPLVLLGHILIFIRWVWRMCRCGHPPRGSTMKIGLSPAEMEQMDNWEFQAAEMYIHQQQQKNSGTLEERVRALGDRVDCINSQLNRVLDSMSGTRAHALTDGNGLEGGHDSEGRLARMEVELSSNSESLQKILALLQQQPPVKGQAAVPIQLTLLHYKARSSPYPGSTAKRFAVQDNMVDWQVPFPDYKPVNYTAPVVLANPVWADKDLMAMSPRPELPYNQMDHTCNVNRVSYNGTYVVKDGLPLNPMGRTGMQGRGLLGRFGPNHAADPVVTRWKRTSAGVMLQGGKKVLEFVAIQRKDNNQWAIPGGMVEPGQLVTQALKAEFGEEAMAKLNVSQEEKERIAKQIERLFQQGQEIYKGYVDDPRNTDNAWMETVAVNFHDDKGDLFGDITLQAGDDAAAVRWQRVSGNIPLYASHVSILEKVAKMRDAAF

In paper PMC7201885 (The Journal of General Physiology, 2020):

Assays:
nvTRPM2 = nvTRPM2 (Nematostella vectensis, UniProt A7T1N0); experiment: Inside-out patch-clamp, full-length; format: cell-based
hsTRPM2 = settings: ref Moreau et al., 2013; cited from earlier work

Mode of action on nvTRPM2 (nvTRPM2; 125 µM Ca2+, compared with ADPR): partial agonist
Hill coefficient nH for channel activation (nvTRPM2; full-length nvTRPM2, 125 µM Ca2+): 1.6 ± 0.2
EC50 (nvTRPM2; read-out: EC50 for nvTRPM2 channel activation, full-length nvTRPM2, 125 µM cytosolic Ca2+, Hill fit, −20 mV): ~30 µM and 31.9 µM
Maximal fractional activation (nvTRPM2; relative to current in 100 µM ADPR, 125 µM Ca2+): 0.29 ± 0.01 and ~0.3
SMILES: Nc1ncnc2c1nc(Br)n2[C@@H]1O[C@H](COP(=O)(O)OP(=O)(O)OC[C@H]2O[C@H](O)C(O)[C@H]2O)C(O)[C@@H]1O (some centres unmarked) [Br-ADPR, 8-Br-ADPR]
Mode of action on hsTRPM2 (hsTRPM2): specific hsTRPM2 inhibitor

“And” between values parts separate entries of the source, which are not always exact repeats. Identical values can stand only once.
